Experiments:
[1] = system: Autoinducer-2 production in wild-type E. coli; details: wild-type E. coli with 0.5 μM inhibitor
wild-type E. coli = details: 0.5 μM inhibitor versus wild-type and MTAN knockout
VcMTAN = target: T1, VcMTAN (Vibrio cholerae serotype O1, UniProt Q9KPI8); test: Inhibition of purified MTAN activity (xanthine oxidase-coupled assay); format: biochemical
T1 construct: residues 1-230 for each monomer of VcMTAN in the asymmetric unit; The largest part of the N-terminal 6-His tag and the last C-terminal residue, 231; made in house; host or cells: E. coli BL21 Star (pBAD-DEST49)
T1 sequence (Q9KPI8 1-231): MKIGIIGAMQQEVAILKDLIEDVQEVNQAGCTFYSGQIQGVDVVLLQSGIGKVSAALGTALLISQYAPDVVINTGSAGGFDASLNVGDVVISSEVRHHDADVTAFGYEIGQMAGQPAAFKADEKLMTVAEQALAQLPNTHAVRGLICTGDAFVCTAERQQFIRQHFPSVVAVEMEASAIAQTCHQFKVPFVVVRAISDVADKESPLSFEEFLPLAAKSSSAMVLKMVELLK

[2] = target: T2, MTAN activity in V. cholerae N16961 cells (Vibrio cholerae serotype O1, UniProt Q9KPI8)
[3] = target: T2, MTAN activity in V. cholerae N16961 cells; test: cell-based
[4] = system: autoinducer production by V. cholerae N16961; test: microbe, parasite or virus in culture; details: Vibrio cholerae, read-out: AI Inhibition IC50, BB120 (ai1+ai2+)
mouse xenografts = details: in vivo; cited from earlier work
[5] = system: normal human fibroblast cell lines; details: cited from earlier work
[6] = system: head and neck squamous cell carcinoma cell lines; details: cited from earlier work

Structure (SMILES)	AI-2 production in words [1]	Growth phenotype of E. coli (wild-type E. coli)	type of inhibition (reaction progress curves) (VcMTAN)	increase of cellular IC50 above Ki* (diffusion barrier) [2]	IC50 [3]	IC50 [4]	tumor growth in mouse xenografts (mouse xenografts)	effect on normal human fibroblast cell lines [5]	apoptosis in head and neck squamous cell carcinoma cell lines [6]	Ki (VcMTAN)
CCCCSCC1CN(Cc2c[nH]c3c(N)ncnc23)CC1O (stereo not drawn) [BuT-DADMe-ImmA, 5′-butylthio-(BuT-)DADMe-ImmucillinA]	Defective AI-2 production	nearly identical	time-dependent, slow-onset inhibition							
CCSCC1CN(Cc2c[nH]c3c(N)ncnc23)CC1O (stereo not drawn) [EtT-DADMe-ImmA, 5′-ethylthio-(EtT-) DADMe-ImmucillinA]			time-dependent, slow-onset inhibition	~500 fold						
CSCC1CN(Cc2c[nH]c3c(N)ncnc23)CC1O (stereo not drawn) [MT-DADMe-ImmA, 5′-methylthio-(MT-) DADMe-ImmucillinA]			time-dependent, slow-onset inhibition		27 nM	10.5 nM	suppresses tumor growth	without affecting normal human fibroblast cell lines	induces apoptosis	0.073 nM

— patent US20110190265A1, “METHODS AND COMPOSITIONS FOR TREATING BACTERIAL INFECTIONS BY INHIBITING QUORUM SENSING” (priority 2008, published 2011)
